Where two headings read alike, the source gives them in different places.

Chains of the proteins cited; added tags and fusions are not shown.
UniProt A0A8T0SQV2, entry or part of it: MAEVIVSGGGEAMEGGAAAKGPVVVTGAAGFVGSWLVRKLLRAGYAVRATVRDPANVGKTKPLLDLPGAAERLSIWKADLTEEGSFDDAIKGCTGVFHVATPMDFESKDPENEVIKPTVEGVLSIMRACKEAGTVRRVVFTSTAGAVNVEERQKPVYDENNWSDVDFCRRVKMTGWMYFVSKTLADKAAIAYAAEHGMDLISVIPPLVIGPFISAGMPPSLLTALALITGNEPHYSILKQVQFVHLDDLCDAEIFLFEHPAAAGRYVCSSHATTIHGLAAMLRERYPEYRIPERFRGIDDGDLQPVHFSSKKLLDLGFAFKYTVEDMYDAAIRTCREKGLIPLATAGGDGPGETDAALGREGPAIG
UniProt C5YGL7, entry or part of it: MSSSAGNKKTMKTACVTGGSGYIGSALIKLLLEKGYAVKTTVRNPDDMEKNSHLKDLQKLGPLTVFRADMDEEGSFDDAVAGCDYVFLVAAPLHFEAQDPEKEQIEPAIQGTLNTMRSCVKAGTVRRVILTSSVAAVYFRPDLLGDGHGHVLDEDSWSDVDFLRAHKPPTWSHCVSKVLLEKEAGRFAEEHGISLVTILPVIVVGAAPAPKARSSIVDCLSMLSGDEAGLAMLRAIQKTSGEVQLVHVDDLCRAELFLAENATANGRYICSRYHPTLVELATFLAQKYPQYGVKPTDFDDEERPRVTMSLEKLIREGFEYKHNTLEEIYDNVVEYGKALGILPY

One assay deals with PvDFRa (Panicum virgatum, UniProt A0A8T0SQV2). Nature of the assay: Isothermal titration calorimetry, PvDFRa. The note with it: ITC. It counts as binding. Background: ITC needs no label: the signal is the heat of the interaction.
The target in the next assay is SbFNR1 (Sorghum bicolor, UniProt C5YGL7). Nature of the assay: Isothermal titration calorimetry, SbFNR1. It counts as binding. The note with it: ITC.

As for NADP^+, the Kd at PvDFRa (298 K, pH 6.5) was determined as 180 ± 60 nM; on PvDFRa (read-out: dissociation constant) it was 185 nM; on SbFNR1 it was 13900 ± 2720 nM.
